From PubChem BioAssay
This is one part of a sample in which hits are shown more often than they occur.
HCMV UL50-53 inh: cytomegalovirus nuclear egress complex inhibition; inhibition, % (no concentration beside the values); 190,000 tested, 0.15% active; HTRF UL50-UL53 interaction, normalized percent inhibition; in the data active means inhibition above about 27%, passing the limit was not always enough
GIV Gai3 FP: inhibitors of GIV peptide binding to Galpha-i3, primary screen, biochemical, fluorescence polarization, FITC-GIV GBA peptide, rat Galphai3; 90 min; stronger effect = lower value; scaled: aluminum fluoride 0%, vehicle 100%; percent of control (FP), % (no concentration beside the values); 210,000 tested, 0.42% active; AID 1224905, 2016;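 active = replicate mean at 85% of control or lower, very high polarization wells dropped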;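 note: wells of about 15 µL received 100 nL stock; the first replicate is given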
Each line names hits and unclear results; the compound was inactive in the other large screens.

C=CCn1c(=O)/c(=C2/Sc3ccccc3N2CC)s/c1=C1\SC(=S)N(C)C1=O	none (no result: HCMV UL50-53 inh)
N#Cc1c(-c2ccco2)cc(-c2cccs2)nc1N	none
Nc1c(C(=O)c2cccs2)oc2nc(-c3cccs3)cc(-c3ccco3)c12	GIV Gai3 FP -54
O=C(Cn1nc(-c2ccc(Cl)cc2)c2ccccc2c1=O)NCCN1CCOCC1	none
Cc1nc2cc3ccccc3cc2c(=O)[nH]1	none
Cc1ccccc1Nc1cc2ccccc2c(=O)[nH]1	HCMV UL50-53 inh 58
CCn1ncc(C2=NOC(C(=O)O)C2)c1C (stereo not given)	none (no result: HCMV UL50-53 inh)
COc1ccc(CC(=O)OCc2nc3ccc(Cl)cc3n2CCO)cc1OC	none (no result: GIV Gai3 FP)
O=C1CC(Nc2ccc3c(c2)OCO3)C(=O)N1C1CCCCC1 (stereo not given)	none
CCN(CC)c1ccc(/C=C2\CC/C(=C\C(C)C)C2=O)cc1	GIV Gai3 FP -88
CN(CCC#N)c1ccc(/C=C2\CC/C(=C\c3ccc(N(C)CCC#N)cc3)C2=O)cc1	GIV Gai3 FP -41
COc1ccc(N=Cc2ccc(N(C)CCC#N)cc2)cc1	none
CC(C)/C=C1\CC/C(=C\c2ccc(Cl)cc2)C1=O	none (no result: HCMV UL50-53 inh)
CCC(=O)Nc1ccc(-c2cc(C(=O)N3CCN(c4ccc(Cl)cc4)CC3)c3ccccc3n2)cc1	none (no result: HCMV UL50-53 inh)
CCCCCCc1cc2cc(C#N)c(=O)oc2cc1O	GIV Gai3 FP -3.8
CCN(CC)c1ccc2cc(C#N)c(=O)oc2c1	none (no result: GIV Gai3 FP)
Cn1c(=O)c(Nc2ccccc2)c2c3c(cccc31)C(=O)c1ccccc1-2	none (no result: HCMV UL50-53 inh)
Cn1c(=O)c(N2CCCCC2)c2c3c(cccc31)C(=O)c1ccccc1-2	GIV Gai3 FP -32 (no result: HCMV UL50-53 inh)
Cn1c(=O)c2nc3ccc(NC(=O)c4ccccc4)cc3nc2n(C)c1=O	none (no result: HCMV UL50-53 inh)
Cn1c(=O)c2nc3ccc(N)cc3nc2n(C)c1=O	GIV Gai3 FP 19 (no result: HCMV UL50-53 inh)
COc1ccccc1NC(=O)Cn1cc(C(=O)Nc2ccc(F)cc2)c(=O)c2ccc(C)nc21	none
Nc1ccc2nc3c(=O)[nH]c(=O)[nH]c3nc2c1	GIV Gai3 FP 18 (no result: HCMV UL50-53 inh)
O=c1[nH]c(=O)c2nc3c(ccc4nsnc43)nc2[nH]1	none (no result: HCMV UL50-53 inh)
Nc1c(C(=O)N2CCOCC2)sc2nc3c(cc12)CCCC3	none
Cc1ccc2nc3sc(C(=O)O)c(N)c3cc2c1	none
COc1ccc2nc3sc(C(=O)N4CCCC4)c(N)c3cc2c1	GIV Gai3 FP -62
Cc1cc(C)c2nc3sc(C(=O)N4CCOCC4)c(N)c3cc2c1	GIV Gai3 FP -49
Cc1ccccc1C(=O)[C@@H]1[C@@H](c2ccccc2)C(C#N)(C#N)[C@H]2C=Cc3cc(Cl)ccc3N12	none (no result: HCMV UL50-53 inh)
COc1cccc(NC(=O)Cn2ncc3c4ccccc4n(Cc4ccccc4)c3c2=O)c1	none (no result: HCMV UL50-53 inh)
Cc1cc(C)cc(NC(=O)c2oc3c(c2C)-c2[nH]ncc2CC3)c1	none (no result: HCMV UL50-53 inh)
Cc1c(C(=O)O)oc2c1-c1[nH]ncc1CC2	HCMV UL50-53 inh 61
N#Cc1c(N)nc(SCC(=O)c2ccccc2)c(C#N)c1-c1ccc(O)cc1	HCMV UL50-53 inh 30
N#Cc1c(N)nc(SCC(=O)c2ccc(Br)cc2)c(C#N)c1-c1ccc(O)cc1	none
COc1cc(/C=C2\C(=O)N(c3ccc(S(N)(=O)=O)cc3)N=C2C)cc(Cl)c1OCc1ccccc1	HCMV UL50-53 inh 61
COc1cc(Br)c(/C=C2\C(=O)N(c3ccc(Cl)c(C(=O)O)c3)N=C2C)cc1OC	none (no result: HCMV UL50-53 inh)
COc1cc(/C=C2\C(=O)N(c3ccc(Cl)c(C(=O)O)c3)N=C2C)cc(OC)c1OC	HCMV UL50-53 inh 63
CCOc1c(OC)cc(/C=C2/C(=O)N(c3ccc(S(N)(=O)=O)cc3)N=C2C)cc1[N+](=O)[O-]	none
O=C(Oc1ccc(C2SCCS2)cc1)c1ccccc1	none
CN1C(=O)SC(Cc2ccc(C#N)cc2)C1=O (stereo not given)	none (no result: GIV Gai3 FP)
Cc1ccc(/C=C2\SC(=O)N(c3ccccc3)C2=O)o1	none
O=C1S/C(=C\c2ccc(N3CCOCC3)o2)C(=O)N1c1ccccc1	GIV Gai3 FP -42 (no result: HCMV UL50-53 inh)
Cc1ccc(NC(=O)c2sc3nc(-c4cc5ccccc5oc4=O)[nH]c(=O)c3c2C)c(C)c1	GIV Gai3 FP 25
Cc1c(C(=O)Nc2ccccc2)sc2nc(-c3cc4ccccc4oc3=O)[nH]c(=O)c12	none
CC1(C)OC2OC(C(=O)Nc3ccc(F)cc3F)C3OC(C)(C)OC3C2O1 (stereo not given)	none (no result: HCMV UL50-53 inh)
N#C/C(=C\c1ccc(-c2ccccc2C(=O)O)o1)c1nc2ccccc2[nH]1	none
N#C/C(=C\c1ccc(-c2ccc(F)cc2F)o1)c1nc2ccccc2[nH]1	GIV Gai3 FP -6.1
Cc1nc2c(c(NCCCN(C)C)n1)CCC2	none
O=S(=O)(c1cccc(F)c1)N1CCN(c2ncnc3c2nnn3-c2ccc(F)cc2)CC1	none (no result: HCMV UL50-53 inh)
O=C(O)CCC(=O)N1N=C(c2c(-c3ccccc3)c3cc(Cl)ccc3[nH]c2=O)CC1c1ccccc1Cl (stereo not given)	none
CN(C1CCCCC1)S(=O)(=O)c1ccccc1N=Cc1c(O)[nH]c(=O)[nH]c1=O	none (no result: GIV Gai3 FP)
N#CC1=C(N)SC(N)=C(C#N)C1c1ccccc1	GIV Gai3 FP -0.3
N#CC1=C(N)SC(N)=C(C#N)C1c1ccncc1	none (no result: GIV Gai3 FP)
CC(C)N=Cc1cc2n(c1O)-c1ccccc1C2=O	GIV Gai3 FP -20
Cn1c(-c2ccccc2)cc(C=Nc2ccccc2)c1O	none (no result: HCMV UL50-53 inh)
Cc1nn(-c2ccccc2)c2c1CC1(C(=O)c3ccccc3C1=O)C1CCCN21 (stereo not given)	none (no result: GIV Gai3 FP)
O=C(O)CCc1nc2ccc(C(=O)O)cc2[nH]1	none (no result: HCMV UL50-53 inh)
C=Cc1c(C)c2cc3[nH]c(cc4nc(cc5nc(cc1[nH]2)C(C)=C5CCC(=O)O)C(CCC(=O)O)=C4C)c(C)c3C=C	HCMV UL50-53 inh 86
CC(C)N/C=C1\C(=O)c2ccccc2N(C)S1(=O)=O	none
COC(=O)CSc1nc(-c2ccccc2)nc2c1Cc1cccc(OC)c1O2	none
COc1cccc2c1Oc1nc(-c3ccccc3)nc(SCC(=O)N(C)c3ccccc3)c1C2	GIV Gai3 FP -21 (no result: HCMV UL50-53 inh)
O=C(C(Cc1ccccc1)n1cccc1)N(CCc1ccccc1)Cc1ccccc1 (stereo not given)	none (no result: HCMV UL50-53 inh)
Cc1noc(C)c1CSc1nc2c(sc3ncccc32)c(=O)n1CC(C)C	HCMV UL50-53 inh 38
CCc1cc2c(=O)n(Cc3ccccc3)c(SCc3c(C)noc3C)nc2s1	none (no result: GIV Gai3 FP)
Cc1ccc(C)c(CN2CCCC2c2cc(C)on2)c1 (stereo not given)	none (no result: HCMV UL50-53 inh)
CCN1CCc2nc(NC(=O)CCc3ccccc3)sc2C1	none (no result: GIV Gai3 FP)
O=C(c1cnc2ccccc2c1Nc1ccc(F)c(F)c1)N1CCOCC1	none
COc1ccc(N=C(N)/C(C#N)=C/c2[nH]c3ccccc3c2O)cc1	none (no result: HCMV UL50-53 inh)
N#C/C(=C\c1[nH]c2ccccc2c1O)C(=N)N1CCOCC1	GIV Gai3 FP -18 (no result: HCMV UL50-53 inh)
COc1cc(OC)c(Nc2c(C(=O)N3CCOCC3)cnc3ccccc23)cc1Cl	GIV Gai3 FP 85
Cc1c(Cl)cccc1Nc1c(C(=O)N2CCOCC2)cnc2ccccc12	none
Cc1csc(-c2cc(S(=O)(=O)Nc3ccc(S(N)(=O)=O)cc3)c(C)s2)n1	none (no result: HCMV UL50-53 inh)
Cc1csc(-c2cc(S(=O)(=O)Nc3ccc(C)c(F)c3)c(C)s2)n1	GIV Gai3 FP 66 (no result: HCMV UL50-53 inh)
CCOc1ccccc1NC(=O)c1ccc(F)c(S(=O)(=O)N2CCN(c3ccc(OC)cc3)CC2)c1	none (no result: HCMV UL50-53 inh)
Nc1nc(-c2ccccc2)c(N=Nc2ccc3c(c2)OCO3)s1	none (no result: GIV Gai3 FP)
CCN1/C(=C/C2=CC(=O)CC(C)(C)C2)Sc2ccccc21	GIV Gai3 FP -24 (no result: HCMV UL50-53 inh)
CCN1/C(=C\C=C2C(=O)OC(C)(C)OC2=O)Sc2ccccc21	GIV Gai3 FP -34
CCN1/C(=C\C(=O)C2CC2)Sc2ccccc21	none
CCN1C(=O)CCSc2ccccc21	none
COc1cc(/C=C/C(=O)OCc2c(C)noc2C)cc(S(=O)(=O)N2CCc3ccccc32)c1OC	none (no result: GIV Gai3 FP)
